We go through two molecules from patent US7504432B2 (priority 2000, dated 2009).

By UniProt entry, the sequences of proteins in these tests, tags left out. Residues count along the entry.
UniProt P08483, whole entry, looked up: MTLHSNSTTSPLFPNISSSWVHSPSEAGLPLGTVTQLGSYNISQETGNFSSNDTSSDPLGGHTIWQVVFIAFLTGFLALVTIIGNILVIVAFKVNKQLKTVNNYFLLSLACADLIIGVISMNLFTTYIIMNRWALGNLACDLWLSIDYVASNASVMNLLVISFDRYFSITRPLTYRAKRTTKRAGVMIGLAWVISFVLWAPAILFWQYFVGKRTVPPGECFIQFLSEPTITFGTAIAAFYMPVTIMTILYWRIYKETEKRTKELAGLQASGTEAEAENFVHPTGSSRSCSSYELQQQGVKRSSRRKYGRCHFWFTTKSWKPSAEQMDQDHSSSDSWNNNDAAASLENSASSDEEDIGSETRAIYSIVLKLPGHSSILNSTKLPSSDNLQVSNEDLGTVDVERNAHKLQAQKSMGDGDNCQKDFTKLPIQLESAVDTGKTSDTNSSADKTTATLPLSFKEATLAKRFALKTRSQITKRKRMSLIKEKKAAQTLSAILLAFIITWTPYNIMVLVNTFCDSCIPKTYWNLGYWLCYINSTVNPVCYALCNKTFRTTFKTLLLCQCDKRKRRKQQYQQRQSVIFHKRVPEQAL
UniProt P20309, whole entry, looked up: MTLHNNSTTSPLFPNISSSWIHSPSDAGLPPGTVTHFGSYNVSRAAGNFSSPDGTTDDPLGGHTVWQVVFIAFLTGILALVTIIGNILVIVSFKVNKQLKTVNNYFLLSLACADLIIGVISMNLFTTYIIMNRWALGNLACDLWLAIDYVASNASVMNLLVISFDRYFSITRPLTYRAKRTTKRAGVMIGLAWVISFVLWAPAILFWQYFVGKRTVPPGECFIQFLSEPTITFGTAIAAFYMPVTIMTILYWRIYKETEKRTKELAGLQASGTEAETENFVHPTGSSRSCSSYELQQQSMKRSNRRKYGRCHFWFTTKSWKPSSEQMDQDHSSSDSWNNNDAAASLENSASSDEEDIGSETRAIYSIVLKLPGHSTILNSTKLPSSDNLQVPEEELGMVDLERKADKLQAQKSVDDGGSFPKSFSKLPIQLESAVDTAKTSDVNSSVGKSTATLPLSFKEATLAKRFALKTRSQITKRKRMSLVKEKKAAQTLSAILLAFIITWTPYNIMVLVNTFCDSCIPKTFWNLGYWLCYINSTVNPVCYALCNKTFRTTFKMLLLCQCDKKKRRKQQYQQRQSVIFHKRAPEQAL
UniProt P10980, whole entry, looked up: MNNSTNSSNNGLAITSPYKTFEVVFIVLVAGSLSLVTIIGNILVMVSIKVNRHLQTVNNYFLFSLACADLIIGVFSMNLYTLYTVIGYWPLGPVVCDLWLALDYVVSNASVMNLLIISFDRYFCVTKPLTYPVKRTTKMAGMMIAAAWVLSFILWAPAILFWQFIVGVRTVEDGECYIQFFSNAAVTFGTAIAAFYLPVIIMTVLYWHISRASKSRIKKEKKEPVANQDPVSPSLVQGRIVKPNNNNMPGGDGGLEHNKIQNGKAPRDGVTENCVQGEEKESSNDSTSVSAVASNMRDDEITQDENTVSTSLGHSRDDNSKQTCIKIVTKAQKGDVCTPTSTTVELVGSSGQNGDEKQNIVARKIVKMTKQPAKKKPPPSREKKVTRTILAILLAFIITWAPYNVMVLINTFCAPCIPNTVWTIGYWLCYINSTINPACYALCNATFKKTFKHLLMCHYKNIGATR
UniProt P08172, whole entry, looked up: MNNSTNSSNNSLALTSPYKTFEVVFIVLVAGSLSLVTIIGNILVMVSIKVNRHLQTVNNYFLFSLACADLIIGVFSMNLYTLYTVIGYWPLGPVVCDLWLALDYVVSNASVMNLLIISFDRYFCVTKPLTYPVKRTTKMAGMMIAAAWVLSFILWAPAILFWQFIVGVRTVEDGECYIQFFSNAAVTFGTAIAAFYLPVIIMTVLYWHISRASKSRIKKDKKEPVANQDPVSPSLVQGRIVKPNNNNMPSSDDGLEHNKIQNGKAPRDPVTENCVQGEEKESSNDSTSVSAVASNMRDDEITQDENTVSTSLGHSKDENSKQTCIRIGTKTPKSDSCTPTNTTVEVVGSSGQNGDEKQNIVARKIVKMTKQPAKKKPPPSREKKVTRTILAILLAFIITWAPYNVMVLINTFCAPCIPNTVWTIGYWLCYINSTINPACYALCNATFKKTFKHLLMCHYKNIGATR
UniProt A0A8I3N190, 1-590: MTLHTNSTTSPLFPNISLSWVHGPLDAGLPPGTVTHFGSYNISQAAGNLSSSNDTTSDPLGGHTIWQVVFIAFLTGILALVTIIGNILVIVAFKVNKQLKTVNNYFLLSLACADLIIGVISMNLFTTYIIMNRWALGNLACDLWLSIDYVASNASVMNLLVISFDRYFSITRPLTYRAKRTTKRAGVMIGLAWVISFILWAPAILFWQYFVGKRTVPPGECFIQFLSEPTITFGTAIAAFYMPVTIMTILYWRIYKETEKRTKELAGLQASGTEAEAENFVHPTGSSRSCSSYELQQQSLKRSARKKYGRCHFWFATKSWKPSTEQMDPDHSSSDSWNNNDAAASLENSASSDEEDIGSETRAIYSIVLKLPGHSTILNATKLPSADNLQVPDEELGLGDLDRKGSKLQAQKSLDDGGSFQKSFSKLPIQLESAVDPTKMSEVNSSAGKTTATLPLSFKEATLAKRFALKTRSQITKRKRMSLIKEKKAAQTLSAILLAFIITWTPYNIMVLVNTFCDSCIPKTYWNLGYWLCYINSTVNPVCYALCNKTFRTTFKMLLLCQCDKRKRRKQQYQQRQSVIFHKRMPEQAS

Assay [1] deals with airway M3 receptor in isolated rat trachea (Rattus norvegicus, UniProt P08483).
Assay [2] has as its target m3 muscarinic acetylcholine receptor (Homo sapiens, UniProt P20309). The assay can be described thus: Inhibition of binding of [3H]-N-methylscopolamine to muscarinic m3 receptor.
Assay [3] concerns the target M2 receptor in isolated rat right atrium (Rattus norvegicus, UniProt P10980). The settings on record: read-out: KB Right atrium M2, carbachol dose-response shift.
Assay [4] deals with m2 muscarinic acetylcholine receptor (Homo sapiens, UniProt P08172). The assay can be described thus: Inhibition of binding of [3H]-N-methylscopolamine to muscarinic m2 receptor. The settings on record: read-out: Ki m2; CHO cells expressing m2 receptor, 0.2 nM [3H]-N-methylscopolamine.
Assay [5] addresses muscarinic M3 receptor (Canis lupus familiaris, UniProt A0A8I3N190). The settings on record: anesthetized beagle dogs, inhalation of 1 mg/ml for 10 minutes.

Take `C[N+]1(C)CCC(OC(=O)[C@](O)(c2ccc(Cl)cc2)[C@@H]2CCC(F)(F)C2)CC1`: the Kb in assay [1] (read-out: KB Trachea M3, isolated rat trachea, carbachol dose-response shift) was found to be 0.044 nM; in assay [3], 9.6 nM. In addition, the inhibition constant Ki in assay [2] (read-out: Ki m3, CHO cells expressing m3 receptor, 0.2 nM [3H]-N-methylscopolamine) came out at 0.425 nM; in assay [4] it was 29.1 nM.

For the molecule `C[N+]1(C)CCC(OC(=O)[C@](O)(c2ccc(Cl)cc2)[C@@H]2CCC(F)(F)C2)CC1.[Br-]`, the M2/M3 (ratio of KB) in assay [1] (selectivity ratio KB right atrium M2 / KB trachea M3) came to 218. Moreover, the “m2/m3 (ratio of Ki)” value in assay [2] (selectivity ratio Ki m2 / Ki m3) was found to be 68.5. The “Shift Value 5 minutes after” value in assay [5] (methacholine threshold 5 minutes after) was above 30. In assay [5] (methacholine threshold 4 hours after), the “Shift Value 4 hours after” value is listed as above 30. The “Shift Value 24 hours after” value in assay [5] (methacholine threshold 24 hours after) is 5.8.

In general, Ki refers to the dissociation constant of the complex between target and ligand, obtained from inhibition or displacement.
